In experiment [1] the target is T1, μ opioid receptor (Homo sapiens, UniProt P35372).
T1 construct: expressed in transfected cells
The experiment is described as follows: Radioligand displacement, μ. Type of experiment: binding. (Loss of bound radioactivity is the signal in a displacement assay; it reports binding, not function.)

Chains of the proteins cited; added tags and fusions are not shown.
UniProt P35372, whole entry: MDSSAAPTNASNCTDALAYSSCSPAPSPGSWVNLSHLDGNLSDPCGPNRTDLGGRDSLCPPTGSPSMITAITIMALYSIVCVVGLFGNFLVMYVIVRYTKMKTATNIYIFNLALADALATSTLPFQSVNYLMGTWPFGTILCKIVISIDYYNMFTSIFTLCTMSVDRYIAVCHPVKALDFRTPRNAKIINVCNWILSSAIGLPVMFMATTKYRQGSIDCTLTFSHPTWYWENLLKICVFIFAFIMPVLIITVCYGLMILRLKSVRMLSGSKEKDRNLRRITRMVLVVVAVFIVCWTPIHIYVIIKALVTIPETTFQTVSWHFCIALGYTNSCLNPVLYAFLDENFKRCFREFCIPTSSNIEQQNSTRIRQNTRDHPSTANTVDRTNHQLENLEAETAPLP

Experiment [2] concerns the target T2, δ opioid receptor (Homo sapiens, UniProt P41143).
T2 construct: expressed in transfected cells
The experiment is described as follows: Radioligand displacement, δ. Type of experiment: binding. The settings on record: radioligand displacement (Table 1).

A word on the Ki: it is the equilibrium dissociation constant of an inhibitor or competing ligand from its target. Higher therefore signals weaker binding.

For the molecule `CC(C)[C@@H](CN1CC[C@@](C)(c2cccc(O)c2)[C@@H](C)C1)NC(=O)[C@H]1Cc2ccc(O)cc2CN1` [JDTic], the Ki turned out to be 3 nM in experiment [1] and 44 nM in experiment [2].

Source of the values: publication PMC3747596 (PLoS ONE, 2013).
